UUG fidelity = alters start codon recognition fidelity in yeast; S. cerevisiae UUG-firefly luciferase reporter, luminescence/redox ratio; activity score, % at 18.7 µM; actives 0.13% (n = 350,000); AID 602363;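 active = replicate mean at a twofold rise or more, about +100% in these data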;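 also: firefly luciferase made from a UUG start codon reports start codon fidelity; reporter light over untreated wells divided by growth signal over untreated wells; some hits fall short of that in this replicate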
PKA-R2B activ = PKA-R2B complex activation | PKA-R2B holoenzyme dissociation, Cy5-IP20 fluorescence polarization; R2B truncated from residue 108, S112A mutant; 0% DMSO only, 100% 113 µM cGMP | activation, % at 11.4 µM | hit rate 0.079% among 340,000 | AID 504700;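 active means activation above a cutoff set at the mean over all compounds plus 3 SD, cut at about 18% in these data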;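 further: higher means more holoenzyme dissociation and a rise in polarization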
PKA-R1A act = activators of PKA-R1A complex; activation, % at 11.4 µM; PKA-R1A dissociation, Cy5-IP20 fluorescence polarization; scaled: DMSO 0%, 113 µM cGMP 100%; P00514+P68181; hit rate 0.083% among 340,000;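 active means percent activation above the mean of all tested compounds plus 3 SD, cut at about 19% in these data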;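 further: higher means more PKAc released from R1A so a rise in polarization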
pCIP destab = p/CIP protein destabilization | Q05BA5 | F442A p/CIP-EGFP cells, EGFP fluorescence, 16 h | decrease of EGFP signal, % at 10 µM | hit rate 0.01% among 290,000;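 active means EGFP signal decrease of at least 30% at 10 µM or well 3 SD below plate mean, unless failing retest; inactive means the rest, including hits failing retest or dose response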
Granule exo inh = lytic granule exocytosis inhibition; AID 651702; inhibition, % at 10 µM; hit rate 0.66% among 360,000; TALL-104 LAMP-1 surface exposure, flow cytometry; cells stimulated with thapsigargin and PMA;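 active means inhibition above about 55%, limit read from the data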
ABCB6 inh 2 = inhibitors of human ABC transporter ABCB6; K562-ABCB6 porphyrin accumulation, flow cytometry, 1 h; stronger effect = lower value; fluorescence ratio to DMSO, % at 10 µM; hit rate 0.19% among 360,000; AID 602162;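 active means fluorescence ratio to DMSO below 75%, the collection mean minus 3 SD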;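 further: signal is porphyrin accumulated inside mitochondria; 100% equals median channel fluorescence of DMSO control wells; lower ratio means ABCB6 inhibition with less porphyrin fluorescence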
R2B FP artifact = fluorescence polarization artifact in PKA-R2B activator counter-screen; shares compounds with PKA-R2B activ; FP artifact counterscreen; activation, % at 11.4 µM; hit rate 6% among 270; in the data active means activation above about 20%;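 further: Cy5 labelled IP20 peptide probe with compound but no PKA protein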
PKA-R2B confirm = PKA-R2B complex activation, confirmation; fluorescence polarization; hit rate 9% among 270; activation, % at 11.4 µM; AID 504797; shares compounds with PKA-R2B activ; in the data active means activation above about 19%
* hit, by the source's call. A selection: hits, their analogues and other compounds. The true share with any hit is near 0.94%.

How did CCOc1ccc(N(C)S(=O)(=O)c2c[nH]c(C(=O)OC)c2)cc1 do in these assays?
UUG fidelity: -2; PKA-R2B activ: 20*; PKA-R1A act: 3; pCIP destab: 1; Granule exo inh: 0; ABCB6 inh 2: 97; R2B FP artifact: 3; PKA-R2B confirm: 4

Results for COc1ccc(CCN(Cc2nc3ccccc3c(=O)[nH]2)C(=O)C2CC2)cc1 ?
UUG fidelity: 11; PKA-R2B activ: 19*; PKA-R1A act: 3; pCIP destab: 4; Granule exo inh: 0; ABCB6 inh 2: 100; R2B FP artifact: 4; PKA-R2B confirm: 1

How did O=C(C1CC1)N(CCc1ccccc1)Cc1nc2ccccc2c(=O)[nH]1 do in these assays?
UUG fidelity: 3; PKA-R2B activ: -7; PKA-R1A act: -8; pCIP destab: -2; Granule exo inh: 0; ABCB6 inh 2: 100

What do the screens show for `C[C@H]1CN([C@@H](C)CO)C(=O)c2cc(/C=C/c3ccccc3)cnc2O[C@@H]1CN(C)C(=O)Nc1ccc(C(F)(F)F)cc1`?
UUG fidelity: 4

How did CCn1c(SCC(=O)NCCc2ccc(Cl)cc2)nnc1-c1cccs1 do in these assays?
UUG fidelity: -6; PKA-R2B activ: 19*; PKA-R1A act: -5; pCIP destab: -8; Granule exo inh: -1; ABCB6 inh 2: 92; R2B FP artifact: 0; PKA-R2B confirm: 1

What do the screens show for `COC(=O)Cc1cc(=O)n2[nH]cnc2n1`?
UUG fidelity: -25; PKA-R2B activ: 19*; PKA-R1A act: -1; pCIP destab: -11; Granule exo inh: -1; ABCB6 inh 2: 99; R2B FP artifact: 3; PKA-R2B confirm: -2

What do the screens show for `O=C1Nc2ccccc2/C1=C/c1cnc(-c2ccccc2)[nH]1`?
UUG fidelity: -3; PKA-R2B activ: 19*; PKA-R1A act: -13; pCIP destab: -50; Granule exo inh: 5; ABCB6 inh 2: 97; R2B FP artifact: 0; PKA-R2B confirm: 5

What do the screens show for `CC(=O)N1CCN(c2ccc(NC(=O)C(C)Oc3ccc(Cl)cc3Cl)cc2)CC1` (stereo not drawn)?
UUG fidelity: -8; PKA-R2B activ: 19*; PKA-R1A act: -6; pCIP destab: -5; Granule exo inh: -5; ABCB6 inh 2: 103; R2B FP artifact: 2; PKA-R2B confirm: 3

What do the screens show for `COC(=O)Cc1cnc(NC(=O)C2C3CCC(C3)C2C(=O)O)s1` (stereo not drawn)?
UUG fidelity: -22; PKA-R2B activ: 19*; PKA-R1A act: 4; pCIP destab: -10; Granule exo inh: 1; ABCB6 inh 2: 99; R2B FP artifact: 2; PKA-R2B confirm: 4

Results for C[C@@H]1CN([C@H](C)CO)C(=O)c2cc(NC(=O)Nc3ccc(C(F)(F)F)cc3)ccc2O[C@@H](C)CCCCO[C@@H]1CN(C)C(=O)CCCN(C)C ?
UUG fidelity: 32

Results for CC(=O)N(c1ccc(Cl)cc1)c1nc(C)cc(C)c1C#N ?
PKA-R2B activ: 20*; PKA-R1A act: 6; pCIP destab: -9; Granule exo inh: -1; ABCB6 inh 2: 96; R2B FP artifact: 1; PKA-R2B confirm: 3

Results for CN(C)c1nc(N2CCN(c3ccccc3)CC2)c(C#N)c(=O)o1 ?
PKA-R2B activ: -2; PKA-R1A act: -8; pCIP destab: -6; Granule exo inh: -1; ABCB6 inh 2: 102

Results for Cc1cccc(C)c1N1CCN(c2nc(N(C)C)oc(=O)c2C#N)CC1 ?
UUG fidelity: -19; PKA-R2B activ: 20*; PKA-R1A act: 2; pCIP destab: -13; Granule exo inh: 0; ABCB6 inh 2: 86; R2B FP artifact: 2; PKA-R2B confirm: 5

How did Cc1cccc2cc(CN(CCCO)C(=O)Nc3ccccc3Cl)c(=O)[nH]c12 do in these assays?
UUG fidelity: 3; PKA-R2B activ: 23*; PKA-R1A act: -1; pCIP destab: -13; Granule exo inh: -3; ABCB6 inh 2: 103; R2B FP artifact: -1; PKA-R2B confirm: 3

A draw from above in order of heavy-atom count, lowest first:
Results for CC(=O)N(c1ccc(Cl)cc1)c1nc(C)cc(C)c1C#N ?
PKA-R2B activ: 20*; PKA-R1A act: 6; pCIP destab: -9; Granule exo inh: -1; ABCB6 inh 2: 96; R2B FP artifact: 1; PKA-R2B confirm: 3

Results for CN(C)c1nc(N2CCN(c3ccccc3)CC2)c(C#N)c(=O)o1 ?
PKA-R2B activ: -2; PKA-R1A act: -8; pCIP destab: -6; Granule exo inh: -1; ABCB6 inh 2: 102

How did O=C(C1CC1)N(CCc1ccccc1)Cc1nc2ccccc2c(=O)[nH]1 do in these assays?
UUG fidelity: 3; PKA-R2B activ: -7; PKA-R1A act: -8; pCIP destab: -2; Granule exo inh: 0; ABCB6 inh 2: 100
